Data published in US10807944B2, “HDAC inhibitor compounds and methods of treatment” (priority 2014, dated 2020).

The chains behind the UniProt entries cited, without tags or fusion partners. Where a name states a change or a piece, a line headed by the entry shows the natural chain unless it says otherwise.
UniProt Q9UBN7: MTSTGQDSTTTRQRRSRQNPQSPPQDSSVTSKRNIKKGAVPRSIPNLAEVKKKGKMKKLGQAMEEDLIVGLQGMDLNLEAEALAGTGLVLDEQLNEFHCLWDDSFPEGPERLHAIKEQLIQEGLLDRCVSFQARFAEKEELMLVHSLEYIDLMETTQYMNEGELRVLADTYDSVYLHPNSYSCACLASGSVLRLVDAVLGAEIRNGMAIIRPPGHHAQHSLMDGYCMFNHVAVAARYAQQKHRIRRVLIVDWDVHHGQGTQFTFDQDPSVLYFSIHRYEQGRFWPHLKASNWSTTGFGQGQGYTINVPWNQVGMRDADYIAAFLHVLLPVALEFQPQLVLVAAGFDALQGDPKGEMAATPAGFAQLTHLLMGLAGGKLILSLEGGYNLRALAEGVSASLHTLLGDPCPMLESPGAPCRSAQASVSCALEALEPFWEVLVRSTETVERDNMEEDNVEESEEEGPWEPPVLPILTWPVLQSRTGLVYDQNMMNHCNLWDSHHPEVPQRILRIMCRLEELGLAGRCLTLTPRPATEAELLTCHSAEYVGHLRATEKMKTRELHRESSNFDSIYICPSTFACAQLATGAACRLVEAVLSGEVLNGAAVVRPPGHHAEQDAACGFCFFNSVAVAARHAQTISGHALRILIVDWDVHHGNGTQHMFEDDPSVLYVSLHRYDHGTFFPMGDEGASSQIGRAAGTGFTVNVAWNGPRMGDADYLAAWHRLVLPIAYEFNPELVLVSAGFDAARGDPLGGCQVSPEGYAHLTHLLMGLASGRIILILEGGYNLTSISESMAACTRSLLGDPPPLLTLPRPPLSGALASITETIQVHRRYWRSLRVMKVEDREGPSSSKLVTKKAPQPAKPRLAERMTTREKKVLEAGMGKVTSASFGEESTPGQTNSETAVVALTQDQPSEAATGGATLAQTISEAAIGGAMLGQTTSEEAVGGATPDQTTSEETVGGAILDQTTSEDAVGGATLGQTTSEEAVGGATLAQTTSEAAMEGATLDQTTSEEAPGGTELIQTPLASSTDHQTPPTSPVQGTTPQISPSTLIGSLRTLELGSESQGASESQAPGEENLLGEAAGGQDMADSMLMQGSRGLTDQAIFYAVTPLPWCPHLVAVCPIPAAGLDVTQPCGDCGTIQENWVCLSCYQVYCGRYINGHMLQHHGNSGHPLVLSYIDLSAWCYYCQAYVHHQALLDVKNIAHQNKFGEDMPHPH

Experiments:
[1] = tested on: HCT116 cells; experiment: H3K18ac after 6 h pulse treatment and drug washout; format: cell-based
[2] = tested on: MDA-MB-231 cells; experiment: Cell cycle analysis by FACS; format: cell-based; conditions: MDA-MB-231, 24 h
[3] = tested on: MDA-MB-231 cells; conditions: MDA-MB-231 monolayer scratch; UF010 at 1 μM
[4] = tested on: Ad-MLP-Luc reporter in HCT116 cell line; experiment: Ad-MLP-Luc luciferase reporter activation; format: cell-based; conditions: HCT116, dose-dependent
[5] = biological target: HDAC6 (Homo sapiens (Human), UniProt Q9UBN7); conditions: Table 1, literature data; read-out: Inhibitory Potency (IC50) HDAC 6; cited from earlier work

Compound	time at which histone acetylation (H3K18ac) was induced ([1]; HCT116, 6 h pulse exposure) [h]	time up to which induced acetylation was maintained ([1]; HCT116, 6 h pulse then drug washout, time after drug addition)	cell cycle effect ([2]; 1 μM)	cell cycle effect ([2]; 10 μM)	cell migration to the denuded areas [3]	Ad-MLP-Luc reporter activity [4]	IC50 [5] [µM]
O=C(CCCCCCC(=O)Nc1ccccc1)NO	≤ 6	quickly reduced to normal levels upon the drug removal	inhibited G1/S progression	induced a strong G2/M block	did not significantly affect	dramatically increased	
CC(=O)Nc1ccc(C(=O)Nc2cc(-c3cccs3)ccc2N)cc1 [Cpd60]							> 30
